# Source: patent US6444144B1, “Polyethoxylated ascorbic acid derivatives as a novel antioxidant and process for preparing thereof” (LG Chemical Ltd., priority 1998, dated 2002)
# Test: Transdermal absorption test (Franz cell)
# Conditions: for Absorption Rate (%) / Total Transdermal Absorption Amount: 50 μl of 5% (w/v) solution in H2O on 1.7 cm^2 mouse skin, after 24 hours
# Procedure: More specifically, a dorsal skin of 8-weeks aged female mouse (naked mouse) was cut off and then 5% (w/v) solution of the test sample was applied in an amount of 50 μl to the skin having a size of 1.7 cm^2. Using the apparatus for measuring transdermal absorption test (Franz cell), after 24 hours, the absorbed material was extracted from 7 ml of the receptor solution [50 mM PBS buffer solution (pH=7.4) containing 2% Vol PO20 polyethylene oleyl ether (HLB=16)] and then quantitatively analyzed by HPLC.
Absorption Rate (%),Total Transdermal Absorption Amount,transdermal absorption rate relative to the related art vitamin C (ratio drawn from Table 5),Substance
12.0%,0.3 mg,eight-fold,3-O-PEG350-Ascorbic Acid
1.5%,0.037 mg,–,Ascorbic-2-polyphosphate
